In patent US8586579B2, “Anellated pyridine compounds” (Hoffmann-La Roche Inc., priority 2010, dated 2013):
Where two headings read alike, the source gives them in different places.

Chains of the proteins cited; added tags and fusions are not shown.
UniProt P35462, whole entry: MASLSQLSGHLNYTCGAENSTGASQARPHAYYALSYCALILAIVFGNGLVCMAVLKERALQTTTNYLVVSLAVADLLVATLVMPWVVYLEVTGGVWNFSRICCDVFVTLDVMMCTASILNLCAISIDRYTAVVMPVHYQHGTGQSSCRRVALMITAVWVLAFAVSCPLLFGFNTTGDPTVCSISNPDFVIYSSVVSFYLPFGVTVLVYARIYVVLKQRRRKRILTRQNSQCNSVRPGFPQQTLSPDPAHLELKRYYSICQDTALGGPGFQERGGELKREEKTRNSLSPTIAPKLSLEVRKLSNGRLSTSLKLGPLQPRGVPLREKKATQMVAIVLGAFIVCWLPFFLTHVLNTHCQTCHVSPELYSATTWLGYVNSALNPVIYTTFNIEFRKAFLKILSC
UniProt P14416, whole entry: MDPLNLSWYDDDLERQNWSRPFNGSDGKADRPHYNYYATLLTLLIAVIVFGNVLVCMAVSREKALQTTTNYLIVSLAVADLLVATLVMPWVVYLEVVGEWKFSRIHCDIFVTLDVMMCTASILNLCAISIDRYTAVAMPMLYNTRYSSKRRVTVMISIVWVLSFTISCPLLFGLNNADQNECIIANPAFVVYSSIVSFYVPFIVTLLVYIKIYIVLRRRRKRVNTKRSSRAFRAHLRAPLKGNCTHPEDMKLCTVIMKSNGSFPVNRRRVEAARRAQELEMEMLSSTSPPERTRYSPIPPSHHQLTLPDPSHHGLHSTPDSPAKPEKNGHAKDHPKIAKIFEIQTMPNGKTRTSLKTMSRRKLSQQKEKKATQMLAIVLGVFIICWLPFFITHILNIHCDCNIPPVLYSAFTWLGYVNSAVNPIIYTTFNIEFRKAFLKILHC
UniProt P28223, whole entry: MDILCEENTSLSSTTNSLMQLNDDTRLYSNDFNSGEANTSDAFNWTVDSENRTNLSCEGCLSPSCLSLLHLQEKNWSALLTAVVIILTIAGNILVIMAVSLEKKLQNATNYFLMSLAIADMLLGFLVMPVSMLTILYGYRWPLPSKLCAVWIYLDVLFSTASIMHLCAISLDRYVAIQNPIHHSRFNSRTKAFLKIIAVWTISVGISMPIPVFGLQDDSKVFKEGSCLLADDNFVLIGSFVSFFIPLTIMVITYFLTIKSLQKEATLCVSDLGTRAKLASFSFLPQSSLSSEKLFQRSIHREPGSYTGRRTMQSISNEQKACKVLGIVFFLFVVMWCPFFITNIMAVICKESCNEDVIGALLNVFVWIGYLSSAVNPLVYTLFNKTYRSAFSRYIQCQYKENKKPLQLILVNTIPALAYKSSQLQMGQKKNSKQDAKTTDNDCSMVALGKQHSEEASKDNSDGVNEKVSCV

Columns and labels:
[1] = biological target: human D3 receptor (Homo sapiens (Human), UniProt P35462); experiment: Radioligand binding assay, [3H]-spiperone, human D3 receptor
Procedure: (§1) HEK293 EBNA cells were transiently transfected with expression plasmids encoding for the human D2 or D3 or for the human 5-HT2A receptor, respectively. The cells were harvested 48 h post-transfection, washed three times with cold PBS and stored at −80° C. prior to use. The pellet was suspended in cold 50 mM Tris-HCl buffer comprising 10 mM EDTA (pH 7.4) and was homogenized with a Polytron (Kinematica AG, Basel, Switzerland) for 20-30 sec at 12.000 rpm. After centrifugation at 48.000×g for 30 min at 4° C., the pellet was resuspended in cold 10 mM Tris-HCl buffer comprising 0.1 mM EDTA (pH 7.4), homogenized, and centrifuged as above. This pellet was further resuspended in a smaller volume of ice cold 10 mM Tris-HCl buffer comprising 0.1 mM EDTA (pH 7.4) and homogenized with a Polytron for 20-30 sec at 12.000 rpm. The protein content of this homogenate was determined with the Bio-Rad (Bradford) Protein Assay (Biorad Laboratories GmbH, München, Germany) according to the instructions of the manufacturer using gamma globulin as the standard. This homogenate was stored at −80° C. in aliquots and thawed immediately prior to use. […]
(§2) The binding affinity (Ki) of the compounds was determined using radioligand binding. […] The nonspecific binding was determined with equally composed reaction mixtures in the presence of 10 μM unlabelled spiperone. Per well 45 μl of Microscint 40 (Perkin Elmer, Schwerzenbach, Switzerland) was added, plates for sealed, shaken for 20 min and counted for 3 min on a Topcount Microplate Scintillation Counter (Can berra Packard SA, Zürich, Switzerland) with quenching correction.
The CPM value for each duplicate of a concentration of competing compound was averaged (y1), then the % specific binding was calculated according to the equation (((y1−non-specific)/(total binding−non-specific))×100). […] The affinity constant (K) was calculated using the Cheng-Prusoff equation Ki=(IC50/1+([L]/Kd), where [L] is the concentration of radioligand and Kd is the dissociation constant of the radioligand at the receptor as determined by the saturation isotherm.

[2] = biological target: human D2 receptor (Homo sapiens (Human), UniProt P14416); experiment: Radioligand binding assay, [3H]-spiperone, human D2 receptor
Procedure: as §1, with “This pellet was further resuspended in a smaller volume of ice cold 10 mM Tris-HCl buffer comprising 0.1 mM EDTA (pH 7.4) and homogenized with a Polytron for 20-30 sec at 12.000 rpm.” left out, “standard.” for “standard. This homogenate was stored at −80° C. in aliquots and thawed immediately prior to use.”
as §2, with “correction. […]” for “correction.”

[3] = biological target: human 5-HT2A receptor (Homo sapiens (Human), UniProt P28223); experiment: Radioligand binding assay, [3H]-ketanserin, human 5-HT2A receptor
Procedure: as §1, with “This pellet was further resuspended in a smaller volume of ice cold 10 mM Tris-HCl buffer comprising 0.1 mM EDTA (pH 7.4) and homogenized with a Polytron for 20-30 sec at 12.000 rpm.” left out, “standard.” for “standard. This homogenate was stored at −80° C. in aliquots and thawed immediately prior to use.”
as §2, with “correction. […]” for “correction.”

[4] = membranes of HEK293 EBNA cells expressing human D3, 0.5 nM [3H]-spiperone

SMILES | Ki [1, 4] [µM] | Ki [2] [µM] | Ki [1] [µM] | Ki [3] [µM]
O=C(C[C@@H]1COCCO1)N[C@H]1CC[C@H](CCN2CCN(c3nccc4c3CCO4)CC2)CC1 [Example 61, trans-N-(4-{2-[4-(2,3-Dihydro-furo[3,2-c]pyridin-4-yl)-piperazin-1-yl]-ethyl}-cyclohexyl)-2-(R)-[1,4]dioxan-2-yl-acetamide] | 0.0187 |  |  | 
O=C(C[C@H]1COCCO1)N[C@H]1CC[C@H](CCN2CCN(c3nccc4c3CCO4)CC2)CC1 [Example 67, trans-N-(4-{2-[4-(2,3-Dihydro-furo[3,2-c]pyridin-4-yl)-piperazin-1-yl]-ethyl}-cyclohexyl)-2-(S)-[1,4]dioxan-2-yl-acetamide] | 0.0243 |  |  | 
Cc1ccc(C(=O)N[C@H]2CC[C@H](CCN3CCN(c4nccc5c4CCO5)CC3)CC2)cn1 [Example 116, trans-N-(4-{2-[4-(2,3-Dihydro-furo[3,2-c]pyridin-4-yl)-piperazin-1-yl]-ethyl}-cyclohexyl)-6-methyl-nicotinamide] |  | 0.313 | 0.0521 | 0.0155
